Measurements as given in patent publication US11608318B2, “Solid state forms of Omecamtiv mecarbil and Omecamtiv mecarbil diHCl” (ASSIA CHEMICAL INDUSTRIES LTD., priority 2018, dated 2023).

Experiment: Solid state form stability under stress conditions (high temperature, high relative humidity; mechanical)
Conditions: stressed conditions, e.g. high temperature and relative humidity
Description: (§1) Pharmaceutical molecules may display solid to solid phase transformations and transformations between polymorphs; which may detected by exposure of the solid state form to stress conditions of e.g., high temperature and high relative humidity.
as §1

Citric Omecamtiv mecarbil diHCl [form OCC-1]
thermodynamic and mechanical stability of the solid state form (polymorphic conversion): thermodynamically and mechanically stable
